Test results published in PubChem BioAssay AID2435 (The Scripps Research Institute Molecular Screening Center, 2010).
The entries are a selection whose mix differs from that of the whole data set. The source made the active and inactive calls.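 Rule for the calls: active = activation above the mean of all tested compounds plus 3 SD, cutoff set per screening run (cut at about 20% in these data); inactive = the rest.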

Sequences of proteins named here, by UniProt entry; tags and fusion partners are left off. A change or cut given only in a name is not applied to a line headed by its entry.
UniProt P30559: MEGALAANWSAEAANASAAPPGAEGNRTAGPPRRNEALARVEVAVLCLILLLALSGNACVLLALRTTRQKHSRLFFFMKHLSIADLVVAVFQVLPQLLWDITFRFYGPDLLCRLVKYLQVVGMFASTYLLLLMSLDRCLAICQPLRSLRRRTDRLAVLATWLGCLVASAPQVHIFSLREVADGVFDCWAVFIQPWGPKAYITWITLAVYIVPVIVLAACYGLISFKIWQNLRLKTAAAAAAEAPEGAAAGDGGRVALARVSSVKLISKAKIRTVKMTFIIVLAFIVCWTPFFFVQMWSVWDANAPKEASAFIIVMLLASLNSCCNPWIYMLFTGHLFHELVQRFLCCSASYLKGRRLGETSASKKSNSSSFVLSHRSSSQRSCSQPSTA

Biological target: Oxytocin receptor (Homo sapiens) (UniProt P30559)
Experiment: oxytocin receptor activation by calcium flux – fluorescence, CHO-OTR cells, Fluo-8 calcium, primary screen (AID 2435);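 note: peak over basal fluorescence ratio from a 100 s FLIPR kinetic read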
Settings: Fluo-8 calcium fluorescence, at 3 µM, stronger effect = higher value, normalized: DMSO 0%, oxytocin 100%

Structure (SMILES)	activation
O=P(Nc1nccs1)(c1ccccc1)c1nc2ccccc2s1 (stereo unspecified)	inactive: -1.09%
O=P(Nc1nccs1)(Oc1ccccc1)Oc1ccccc1	inactive: 0.03%
CCOP1(=S)c2c(C)nn(CCC#N)c2N=C(c2ccccc2F)N1C (stereo unspecified)	inactive: -1.19%
CS(=O)(=O)c1cc([N+](=O)[O-])c2no[n+]([O-])c2c1	inactive: 0.21%
Nc1ccccc1[As](=O)(O)c1ccccc1	inactive: 0.22%
O=C(O)COc1ccc([As](=O)(O)O)cc1[N+](=O)[O-]	inactive: 0.1%
NC(=O)Nc1ccc([As](=O)(O)O)cc1	inactive: 0.52%
CCOP1(=S)c2c(C)nn(CCC#N)c2N=C(c2ccc(F)cc2)N1C (stereo unspecified)	inactive: -0.79%
CN(C(=O)Cc1ccccc1)[C@@H]1CC[C@]2(CCCO2)C[C@H]1N1CCCC1	inactive: 0.21%
N#CCCN(C(=O)COC(=O)C(O)(c1ccccc1)c1ccccc1)c1ccc(F)cc1	inactive: 4.08%
CN(C(=O)Cc1ccc(Cl)c(Cl)c1)[C@H]1CC[C@@]2(CCCO2)C[C@@H]1N1CCCC1	inactive: 1.09%
CN(C)C(=O)c1cc([N+](=O)[O-])cc2c1-c1c(cc([N+](=O)[O-])cc1[N+](=O)[O-])C2=O	inactive: -2.53%
O=[N+]([O-])c1ccc2c(c1)nnn2O	inactive: 0.48%
O=C(OC1CN2CCC1CC2)c1ccc(Cl)cc1 (stereo unspecified)	inactive: 1.05%
CS(=O)(=O)c1ccc(Cl)c(NC(=O)COC(=O)C(O)(c2ccccc2)c2ccccc2)c1	inactive: 11.4%
COc1cc(C(=O)NCC2(N3CCOCC3)CCCCC2)cc(Cl)c1OC(C)C	inactive: -3.16%
O=[As](O)(O)c1cccnc1	inactive: 0.28%
O=[As](O)(c1cccc(O)c1)c1cccc(O)c1	inactive: 1.36%
Cc1cccc(OCC(=O)OC2CN3CCC2CC3)c1 (stereo unspecified)	inactive: 0.32%
Cc1ccc(NCCc2c([N+](=O)[O-])cc([N+](=O)[O-])cc2[N+](=O)[O-])cc1	inactive: -1.93%
CCCOP(=S)(Nc1nc(N)cc(=O)[nH]1)OCCC	inactive: -0.7%
CCOP(=O)(Nc1cccc2ccccc12)OCC	inactive: -0.54%
COc1cc(C2NCCC3(OCCO3)C2(C)C)cc(OC)c1OC (stereo unspecified)	inactive: 1.48%
CCOP(=O)(NC(=NC(C)c1ccccc1)NC(C)c1ccccc1)OCC (stereo unspecified)	inactive: -0.78%
O=P1(Nc2ccccn2)COc2ccccc2OC1	inactive: -0.76%
CCC1=CC2Cc3nc4ccc(Cl)cc4c(N)c3C(C1)C2 (stereo unspecified)	inactive: 5.29%

Structure (SMILES)	activation
CN(CCCl)Cc1cc(Cl)c(NC2=NCCN2)c(Cl)c1	inactive: 0.35%
CCOP(=O)(Nc1ccc(C)cn1)OCC	inactive: 0.63%
CC(C)(C)C(=O)NC(Sc1ncccn1)C(Cl)(Cl)Cl (stereo unspecified)	inactive: -0.21%
Clc1n[nH]nc1-c1nn[nH][15n]1	inactive: 0.95%
COc1ccccc1CNC(=O)COC(=O)C(O)(c1ccccc1)c1ccccc1	inactive: 0.59%
CC(C)/C=N\N=C(\N)N[N+](=O)[O-]	inactive: -0.31%
CN(C(=O)Cc1ccc(Cl)c(Cl)c1)[C@@H]1CCCC[C@H]1N1CCCC1	inactive: -0.06%
CC1(CBr)Cn2c(nc3ccccc3c2=O)S1 (stereo unspecified)	inactive: 0.65%
O=[As](O)(c1ccccc1Br)c1ccccc1Br	inactive: -0.27%
CC1CCC(C(C)C)C(OP(=O)(Nc2ccccn2)c2ccccc2)C1 (stereo unspecified)	inactive: -0.72%
Cc1ccc(C(=O)OC2CN3CCC2CC3)cc1 (stereo unspecified)	inactive: 0.4%
Cc1nn(-c2ccccc2)c2c1P(=O)(N1CCOCC1)N(C)C(c1ccccc1)=N2 (stereo unspecified)	inactive: 0.02%
CN(C)C1(CNC(=O)c2ccc(S(C)(=O)=O)cc2)CCCCC1	inactive: 1.14%
O=C(/C=C/c1ccccc1)OC1CN2CCC1CC2 (stereo unspecified)	inactive: -1.64%
O=P1(Nc2ncccn2)COc2ccccc2OC1	inactive: 1.14%
Nc1cccc([As](=O)(O)c2ccccc2)c1	inactive: 0.91%
O=P1(Nc2ccc(Br)cn2)COc2ccccc2OC1	inactive: 2.11%
NS(=O)(=O)c1cccc(NC(=O)COC(=O)C(O)(c2ccccc2)c2ccccc2)c1	inactive: -0.14%
O=[As](O)(c1cccs1)c1cccs1	inactive: 0.52%
Cc1ccc(OCC(=O)OC2CN3CCC2CC3)cc1 (stereo unspecified)	inactive: 1.26%
CCOC(=O)Nc1ccc([As](=O)(O)O)c(O)c1	inactive: 0.44%
Cc1cc(SC(NC(=O)c2ccccc2)C(Cl)(Cl)Cl)nc(C(C)C)n1 (stereo unspecified)	inactive: -0.54%
CCOC(=O)Nc1cccc([As](=O)(O)O)c1	inactive: 0.96%
O=P(Nc1ccccn1)(c1cccc2ccccc12)c1cccc2ccccc12	inactive: 9.77%
Cc1cc(SC(NC=O)C(Cl)(Cl)Cl)ncn1 (stereo unspecified)	inactive: 0.66%
COP1(=S)c2c(C)nn(CCC#N)c2N=C(c2ccc(F)cc2)N1C (stereo unspecified)	inactive: 0.25%

Structure (SMILES)	activation
O=C(Nc1ccncc1[N+](=O)[O-])c1ccc([N+](=O)[O-])cc1[N+](=O)[O-]	inactive: 0.9%
O=C(COc1ccccc1)OC1CN2CCC1CC2 (stereo unspecified)	inactive: 0.77%
O=C(OC1CN2CCC1CC2)c1cccc([N+](=O)[O-])c1 (stereo unspecified)	inactive: -0.23%
CCOC(=O)c1ccc(NC(=O)C(C)(CCl)SC)cc1 (stereo unspecified)	inactive: 0.11%
CCC(C)N(CC(C)C)C(=S)SC(NC(C)=O)C(Cl)(Cl)Cl (stereo unspecified)	inactive: 0.75%
Cc1c2c(nc3ccccc13)SC(C(Cl)Cl)C2 (stereo unspecified)	inactive: -2.55%
Cc1cc(=O)[nH]c(N[N+](=O)[O-])n1	inactive: 0.63%
O=C(OC1CN2CCC1CC2)C12CC3CC(CC(C3)C1)C2 (stereo unspecified)	inactive: 3.87%
COc1cc(I)ccc1[As](=O)(O)O	inactive: -0.98%
COc1ccc2nc(NP(=O)(c3ccccc3)c3ccccc3)sc2c1	inactive: -1.44%
COc1ccc(N/C(=N/P(=O)(N2CCOCC2)N2CCOCC2)N2CCOCC2)cc1	inactive: 1.25%
COc1cc(C(=O)NCC2(N3CCOCC3)CCCCC2)ccc1OCC(C)C	inactive: -2.29%
C[As](=O)(O)c1cccc(C(=O)O)c1	inactive: -0.35%
O=[As](O)(c1ccc(O)cc1)c1ccccc1O	inactive: 2.07%
Cc1ccc(OP(=O)(Nc2ccc([N+](=O)[O-])cn2)Oc2ccc(C)cc2)cc1	inactive: -0.89%
Cc1ccc2nc3c(c(C)c2c1)CC(C(Cl)Cl)S3 (stereo unspecified)	inactive: -1.82%
ClCCSc1nnc(-c2cccnc2)o1	inactive: 1.12%
CC(C)c1ccc(OP(=O)(Nc2ccccn2)Oc2ccccc2F)cc1 (stereo unspecified)	inactive: -1.09%
O=[N+]([O-])c1cc([N+](=O)[O-])c(-c2ccn[nH]2)s1	inactive: 0.17%
CCN(CC)C(=S)SC(NC=O)C(Cl)(Cl)Cl (stereo unspecified)	inactive: 1.98%
CC(C)NC(=O)NP(=O)(Oc1ccccc1)Oc1ccccc1	inactive: 0.49%
O=P(Nc1nc2ccc(Cl)cc2s1)(c1ccccc1)c1ccccc1	inactive: 6.73%
O=C(O)c1ccccc1[As](=O)(O)O	inactive: -0.04%
CC(=O)Nc1ccc([As](=O)(O)O)cc1	inactive: 1.09%
Cc1ccc(NP(=O)(Oc2ccccc2F)Oc2ccccc2F)nc1	inactive: -0.41%
CN(C(=O)Cc1ccc(Cl)c(Cl)c1)[C@H]1CCCC[C@@H]1N1CCCC1	inactive: -0.39%

Structure (SMILES)	activation
CCOP(=O)(Nc1ccccc1)OCC	inactive: 0.39%
Cc1cc(SC(NC(=O)c2ccc(F)cc2)C(Cl)(Cl)Cl)ncn1 (stereo unspecified)	inactive: -0.07%
O=[N+]([O-])c1cc([N+](=O)[O-])c(CCN2CCOCC2)c([N+](=O)[O-])c1	inactive: -0.71%
CCN(N=Nc1nonc1N)c1nonc1N	inactive: 0.67%
Cc1ccc(N/C(=N/P(=O)(N2CCOCC2)N2CCOCC2)N2CCOCC2)cc1	inactive: 0.03%
CN(C(=O)Cc1ccc(Cl)c(Cl)c1)[C@H]1CCCC[C@H]1N1CCCC1	inactive: 0.56%
NC(=O)c1cc([N+](=O)[O-])cc([N+](=O)[O-])c1N	inactive: 0.03%
Clc1ccc(Cl)c(NC2=NCC(CBr)S2)c1 (stereo unspecified)	inactive: 0.35%
CN1CCCC(OC(=O)C(c2ccccc2)c2ccccc2)C1 (stereo unspecified)	inactive: 1.23%
Cc1ccc(OP(=O)(Nc2nccs2)Oc2ccc(C)cc2)cc1	inactive: -2.74%
COc1ccccc1OP(=O)(Nc1ccc(C)cn1)Oc1ccccc1OC	inactive: -0.65%
Cc1c2non([O-])c-2c(C)[n+](=O)[n+]1[O-]	inactive: 10.3%
O=C(NC(Sc1ccncn1)C(Cl)(Cl)Cl)c1ccccc1 (stereo unspecified)	inactive: -0.63%
Oc1ccccc1CNc1ccccn1	inactive: 0.54%
CC(C)CC(=O)NC(Sc1ccc(Cl)cc1)C(Cl)(Cl)Cl (stereo unspecified)	inactive: -2.32%
Nc1cc(N)c2nonc2c1[N+](=O)[O-]	inactive: 1%
COc1ccc(C2=NCC(CBr)S2)cc1 (stereo unspecified)	inactive: 1.46%
CCc1nc2c(n1)c1c(non1O)c1c2no[n+]1[O-]	inactive: 7.21%
O=[N+]([O-])c1cc([N+](=O)[O-])c(CCNc2ccccc2)c([N+](=O)[O-])c1	inactive: -1.77%
Cc1ccc(NP(=O)(Oc2ccccc2)Oc2ccccc2)nc1	inactive: -2.63%
O=[N+]([O-])c1cccc2n[nH]nc12	inactive: 0.16%
CC(=O)N1C2C3N(C(C)=O)C1C1N(C(C)=O)C(C(N1C(C)=O)N3C(C)=O)N2C(C)=O	inactive: 0.39%
CCN(/C(=N/P(=O)(N1CCOCC1)N1CCOCC1)N1CCOCC1)c1ccc(OC)cc1	inactive: 0.73%
